Measurements as given in patent US20230003720A1 (priority 2016, published 2023).
“Also recorded” adds a separate entry of the source.

What was measured:
[1] = tested on: cells having broadly, moderately or narrowly tuned odorant receptors; format: cell-based

COc1cc(C(=O)O)ccc1O [vanillic acid]
detection of presence of the sample [1]: will be able to detect; also recorded: will not be able to detect | level of luminescence at different concentrations (mOR9-1): decreasing level of luminescence as the concentration of vanillic acid is decreased | lower limit of detection (mOR9-1): about 10 nM | receptor tuning over a panel of different compounds (luminescence) (mOR9-1): more narrowly tuned | level of luminescence at different concentrations (mOR177-1): low background signal | level of luminescence at different concentrations (mOR160-1): low background signal
